Laboratory results reported in patent US20050165102A1, “Compositions and dosage forms for enhanced absorption” (priority 2003, published 2005).

Assays:
[1] = In vivo absorption, oral gavage rat model (metformin); settings: rats, end of oral gavage study
[2] = rat, in vivo, po

| SMILES | macroscopic evaluation of the G.I. tract for signs of irritation [1] | macroscopic evaluation of the G.I. tract for signs of irritation [2] |
| --- | --- | --- |
| CN(C)C(=N)N=C(N)N [Metformin HCl, metformin hydrochloride, reference compound] | No irritation | – |
| CCCCCCCCCCCC(=O)O.CN(C)C(=N)N=C(N)N [Metformin laurate] | – | No irritation |

Where a name gives a salt, the structure may show the parent alone. Read-outs that look alike come from different tables or passages of the source.
